Measured values published in ChEMBL document CHEMBL3797021, “Design, synthesis, and biological evaluation of substrate-competitive inhibitors of C-terminal Binding Protein (CtBP)” (Bioorg Med Chem, 2016).

Assay: Selectivity ratio of IC50 for rabbit muscle L-lactate dehydrogenase to IC50 for recombinant His6-tagged CtBP2 (31 to 384 residues) (unknown origin) dehydrogenase activity

O=C(O)/C(Cc1ccc(Cl)cc1)=N\O
Ratio IC50: > 170
